In experiment [1] the target is T1, Adenosine receptor A1 (Homo sapiens, UniProt P30542). The experiment can be described thus: Inhibitory activity against binding of [3H]DPCPX to human A1 receptor (hA1) using competition binding assay.
Experiment [2] deals with T1, Adenosine receptor A1. Description: Inhibitory activity against binding of the [3H]DPCPX to human A1 receptor (hA1) radioligands using competition binding assay.
The target of experiment [3] is T1, Adenosine receptor A1. The experiment can be described thus: Inhibitory activity against membranes from yeast cells transformed with human A1 receptor (hA1). The format is cell-based.

Protein sequences, listed by entry. Tags and fused reporters are not part of them.
UniProt P30542, whole entry: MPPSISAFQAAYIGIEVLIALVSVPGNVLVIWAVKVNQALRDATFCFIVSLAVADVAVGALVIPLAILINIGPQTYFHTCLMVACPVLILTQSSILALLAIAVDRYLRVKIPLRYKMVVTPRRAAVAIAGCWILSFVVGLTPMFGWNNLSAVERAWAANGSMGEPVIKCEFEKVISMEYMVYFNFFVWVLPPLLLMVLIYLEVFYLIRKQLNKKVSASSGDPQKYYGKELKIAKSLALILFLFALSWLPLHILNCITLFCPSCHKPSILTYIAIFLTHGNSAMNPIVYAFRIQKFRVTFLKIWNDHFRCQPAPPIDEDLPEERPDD

This note sets out measurements from ChEMBL document CHEMBL1131846, “Selective A1-adenosine receptor antagonists identified using yeast Saccharomyces cerevisiae functional assays” (Bioorg Med Chem Lett, 1999).

As for `CC(=O)NCCNc1nc(-c2ccccc2)nc2[nH]c(C)c(C)c12`, the IC50 in experiment [1] and in experiment [3] was 24 nM throughout. Moreover, the affinity in experiment [2] corresponds to a Ki of 12 nM.
